# Binding of CDR-mutated scFvs to a peptide of the spike HR2 region

The target is the same throughout: PDVDLGDISGINAS, from the HR2 region of SARS-CoV-2 spike.

Parent: Ab-95, a human scFv built as VH, the linker GGGGSGGGGSGGGGS, VL. Only the CDRs of the light chain vary.
VH: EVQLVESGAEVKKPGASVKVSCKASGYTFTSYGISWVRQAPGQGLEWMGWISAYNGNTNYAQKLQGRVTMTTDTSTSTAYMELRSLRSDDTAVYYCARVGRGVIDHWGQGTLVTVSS
VL: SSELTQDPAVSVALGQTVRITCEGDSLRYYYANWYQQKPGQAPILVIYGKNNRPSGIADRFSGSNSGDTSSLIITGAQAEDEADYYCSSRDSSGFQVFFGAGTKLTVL

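Phage display of a naive human antibody library on the peptide gave the parent. AAYL52 was designed without a model: most single CDR substitutions and a random sample of double and triple ones. In AlphaSeq, yeast of one mating type display the scFv and yeast of the other type display the target. Mating (16 h, 30 °C) was followed by selection of diploids and sequencing of their barcodes. The ratio of observed to expected reads was calibrated, replicate by replicate, on BCL2-family standards whose Kd was known from biolayer interferometry. Mating was done three times.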

Sequences are complete VL domains.
Values are log10 of the apparent Kd in nM; lower means stronger binding.
"n.d." means that the variant was in the library but no mating with the target was seen in that replicate; the authors take this as a sign of poor binding, and no number exists.

{"VL": "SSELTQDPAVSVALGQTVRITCEGDSLHYYYANWYQQKPGQAPILVIYGKNNRPSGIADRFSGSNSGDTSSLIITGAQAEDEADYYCSSRCSSGFRVFFGAGTKLTVL", "replicates, log10 nM": "n.d. / n.d. / n.d.", "signal with controls": "0 of 9"}
{"VL": "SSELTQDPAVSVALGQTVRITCEGDSLRYYYANWYQQKPGQAPILVIYGIDNRPSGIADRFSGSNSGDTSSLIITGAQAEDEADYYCSSRDSSGFQMFFGAGTKLTVL", "replicates, log10 nM": "n.d. / 4.78 / n.d.", "signal with controls": "1 of 9 (3.65)"}
{"VL": "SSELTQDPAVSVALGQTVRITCEGDSRLYYYANWYQQKPGQAPILVIYGKNNRPSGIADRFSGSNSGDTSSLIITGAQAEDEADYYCSSRDSVGFQVFFGAGTKLTVL", "replicates, log10 nM": "n.d. / n.d. / n.d.", "signal with controls": "1 of 9 (4.30)"}
{"VL": "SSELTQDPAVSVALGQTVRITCEGDSLRYYYANWYQQKPGQAPILVIYGKNNQPQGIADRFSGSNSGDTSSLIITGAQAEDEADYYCSSRDKSGFQVFFGAGTKLTVL", "replicates, log10 nM": "2.54 / 2.60 / 2.12", "signal with controls": "1 of 9 (3.39)"}
{"VL": "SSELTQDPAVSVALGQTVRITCEGDSGRYYYANWYQQKPGQAPILVIYGKNNRYSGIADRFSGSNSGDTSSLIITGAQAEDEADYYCSSNDSSGFQVFFGAGTKLTVL", "replicates, log10 nM": "n.d. / 4.97 / n.d.", "signal with controls": "1 of 9 (4.71)"}
{"VL": "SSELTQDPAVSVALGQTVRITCEGDSLRYYYANWYQQKPGQAPILVIYGKNNRPSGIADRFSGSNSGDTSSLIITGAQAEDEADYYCSSYDRSWFQVFFGAGTKLTVL", "replicates, log10 nM": "n.d. / 2.65 / 3.30", "signal with controls": "3 of 9 (4.05)"}
{"VL": "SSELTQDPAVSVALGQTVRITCEDDSLRYYYANWYQQKPGQAPILVIYGKNNRFSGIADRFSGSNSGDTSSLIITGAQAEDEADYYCQSRDSSGFQVFFGAGTKLTVL", "replicates, log10 nM": "n.d. / n.d. / n.d.", "signal with controls": "0 of 9"}
{"VL": "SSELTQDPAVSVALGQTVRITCEGDSAYYYYAWWYQQKPGQAPILVIYGKNNRPSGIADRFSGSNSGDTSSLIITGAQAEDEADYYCSSRDSSGFQVFFGAGTKLTVL", "replicates, log10 nM": "2.64 / 2.66 / 2.63", "signal with controls": "5 of 9 (4.24)"}
{"VL": "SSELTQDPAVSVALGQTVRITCEGDSHWYAYANWYQQKPGQAPILVIYGKNNRPSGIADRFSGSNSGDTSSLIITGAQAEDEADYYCSSRDSSGFQVFFGAGTKLTVL", "replicates, log10 nM": "3.65 / n.d. / 3.00", "signal with controls": "4 of 9 (3.90)"}
{"VL": "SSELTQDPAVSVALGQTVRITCEGDSLRYYYANWYQQKPGQAPILVIYGVNFRPSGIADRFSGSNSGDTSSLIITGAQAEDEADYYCSSRDSSGFQVFFGAGTKLTVL", "replicates, log10 nM": "4.53 / 3.42 / n.d.", "signal with controls": "1 of 9 (3.35)"}
{"VL": "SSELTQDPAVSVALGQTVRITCQGDSLRYYYANWYQQKPGQAPILVIYGKNNRPSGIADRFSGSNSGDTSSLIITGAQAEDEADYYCSSRDLSGSQVFFGAGTKLTVL", "replicates, log10 nM": "2.46 / 2.54 / 2.27", "signal with controls": "4 of 9 (4.03)"}
{"VL": "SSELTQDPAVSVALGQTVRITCEGDSLRYYYAFWYQQKPGQAPILVIYGKNNRPSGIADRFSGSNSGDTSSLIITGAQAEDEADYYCSSRDESGFQPFFGAGTKLTVL", "replicates, log10 nM": "n.d. / n.d. / n.d.", "signal with controls": "0 of 9"}
{"VL": "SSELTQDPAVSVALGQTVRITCYGASLRYYYANWYQQKPGQAPILVIYGKNNRPSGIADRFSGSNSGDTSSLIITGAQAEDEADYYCSSRDSSGNQVFFGAGTKLTVL", "replicates, log10 nM": "3.01 / 3.12 / 3.21", "signal with controls": "2 of 9 (3.29)"}
{"VL": "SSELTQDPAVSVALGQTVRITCEGDSLRYYYFNWYQQKPGQAPILVIYGKNNRPSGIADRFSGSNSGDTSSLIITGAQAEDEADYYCSSIDSSGFQVEFGAGTKLTVL", "replicates, log10 nM": "n.d. / n.d. / n.d.", "signal with controls": "2 of 9 (3.67)"}
{"VL": "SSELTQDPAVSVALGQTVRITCEGDSLRCWYANWYQQKPGQAPILVIYGENNRPSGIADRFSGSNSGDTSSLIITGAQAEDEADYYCSSRDSSGFQVFFGAGTKLTVL", "replicates, log10 nM": "2.04 / 2.16 / 2.25", "signal with controls": "3 of 9 (3.50)"}
{"VL": "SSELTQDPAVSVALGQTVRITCFGDSLRVYYANWYQQKPGQAPILVIYGKNNRPSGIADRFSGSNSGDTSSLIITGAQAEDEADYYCSSRDSSGFQSFFGAGTKLTVL", "replicates, log10 nM": "n.d. / 4.40 / 4.68", "signal with controls": "5 of 9 (4.13)"}
{"VL": "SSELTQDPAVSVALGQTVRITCEGDSLRYYYAYWYQQKPGQAPILVIYGKNNRPSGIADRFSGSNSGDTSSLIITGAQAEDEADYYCSRRDSSGFWVFFGAGTKLTVL", "replicates, log10 nM": "4.37 / n.d. / n.d.", "signal with controls": "5 of 9 (3.55)"}
{"VL": "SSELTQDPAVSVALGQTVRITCTGDSHRYYYANWYQQKPGQAPILVIYGNNNRPSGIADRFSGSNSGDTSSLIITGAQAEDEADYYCSSRDSSGFQVFFGAGTKLTVL", "replicates, log10 nM": "2.92 / 2.76 / 2.63", "signal with controls": "4 of 9 (4.74)"}

2 of these entries, quoted again:

{"VL": "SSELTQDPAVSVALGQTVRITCEGDSGRYYYANWYQQKPGQAPILVIYGKNNRYSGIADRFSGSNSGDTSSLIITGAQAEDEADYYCSSNDSSGFQVFFGAGTKLTVL", "replicates, log10 nM": "n.d. / 4.97 / n.d.", "signal with controls": "1 of 9 (4.71)"}
{"VL": "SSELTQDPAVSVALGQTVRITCEGDSLRYYYANWYQQKPGQAPILVIYGKNNRPSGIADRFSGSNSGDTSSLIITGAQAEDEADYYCSSYDRSWFQVFFGAGTKLTVL", "replicates, log10 nM": "n.d. / 2.65 / 3.30", "signal with controls": "3 of 9 (4.05)"}

As a blank, each scFv also met three strains without target: over library AAYL52, 28% of these pairings were detected, typically at 3.91 and seldom below 2.90. For each scFv, signals with the empty controls are counted beside the result, with their mean in brackets.

From the AlphaSeq antibody data of Engelhart et al. 2022 (doi:10.1038/s41597-022-01779-4), copy in the FLAb collection.